Our source for the IC50 values is patent publication US9315491B2 (DEVELOPMENT CENTER FOR BIOTECHNOLOGY, priority 2009, dated 2016).

The term IC50 denotes the concentration needed to halve the response being measured. A higher IC50 goes with weaker potency.

One assay concerns A549 cells. Description: Antiproliferation assay (MTS), A549. The note with it: Homo sapiens; A549, 72 hours of drug treatment. In kind it is cell-based.
In a further assay the test system is PC-3 cells. Briefly: Antiproliferation assay (MTS), PC-3. It counts as cell-based. To be noted: Homo sapiens, PC3, 72 hours of drug treatment. On the procedure: (1) Antiproliferation Assay
PC-3, U-87 MG, HCC1954 and BT474 cell lines were purchased from the American Type Culture Collection (ATCC, USA). PC-3 was grown in F12K medium (GIBCO) containing 10% FBS. U-87 MG was grown in Eagle's minimum essential medium (MEM, Sigma) supplemented with nonessential amino acids, L-glutamine, sodium pyruvate, and 10% FBS. HCC1954 was grown in RPMI medium (GIBCO) containing 10% FBS. […] All cells were incubated in a humidified atmosphere containing 5% CO2 at 37° C.
Cell lines were inoculated to the wells of a 96-well culture plate with 1000-5000 cells per well. The compounds were prepared and used to treat cells with less than 1% DMSO. After 72 hours of drug treatment, the viability of each cell line was examined by CellTiter 96 Aqueous Non-Radioactive Cell Proliferation Assay (Promega). The living cells were detectable by conversion of MTS into aqueous, soluble formazan. MTS/PMS solution was freshly prepared and 20 μl of MTS/PMS solution was added to each well of the 96-well cultured plate. The assay plate was incubated for 3 hours and the absorbance at 490 nm was measured by EMax ELISA Reader (Molecular Devices). The IC50 values of compounds were determined after carrying out assays at eight serially diluted concentrations of each compound in triplicate, and are the mean of three separate determinations. The results were analyzed using linear regression software (GraphPad Prism 5; GraphPad Software Inc.).

For `CCOC(=O)c1nc(-c2ccc(NC(=O)Nc3ccc(C(=O)N4CCN(C)CC4)cc3)cc2)nc(N2CCOCC2)c1OCC` [MTR-0274, 5-Ethoxy-2-(4-{3-[4-(4-methyl-piperazine-1-carbonyl)-phenyl]-ureido}-phenyl)-6-morpholin-4-yl-pyrimidine-4-carboxylic acid ethyl ester], the IC50 was determined as 135 ± 11 nM in the assay with A549 cells and 57 ± 2 nM in the assay with PC-3 cells.
Take `CCOC(=O)c1nc(-c2ccc(NC(=O)Nc3ccc(C(=O)NCCN(C)C)cc3)cc2)nc(N2CCOCC2)c1OCC` [MTR-0277, 2-(4-{3-[4-(2-Dimethylamino-ethylcarbamoyl)-phenyl]-ureido}-phenyl)-5-ethoxy-6-morpholin-4-yl-pyrimidine-4-carboxylic acid ethyl ester]: the IC50 in the assay with A549 cells was found to be 561 ± 30 nM; in the assay with PC-3 cells, 86 ± 3 nM.
`COc1cnc(-c2ccc(NC(=O)Nc3ccc(C(N)=O)cc3)cc2)nc1N1CCOCC1` [MTR-0282, 4-{3-[4-(5-Methoxy-4-morpholin-4-yl-pyrimidin-2-yl)-phenyl]-ureido}-benzamide]: the IC50 was determined as 7570 ± 755 nM in the assay with A549 cells and 148 ± 14 nM in the assay on PC-3 cells.
Take `COc1cnc(-c2ccc(NC(=O)Nc3ccc(S(N)(=O)=O)cc3)cc2)nc1N1CCOCC1` [MTR-0283, 4-{3-[4-(5-Methoxy-4-morpholin-4-yl-pyrimidin-2-yl)-phenyl]-ureido}-benzenesulfonamide]: the IC50 with A549 cells amounted to 3720 ± 341 nM; in the assay on PC-3 cells, 283 ± 31 nM.
For `CSc1cnc(-c2ccc(NC(=O)Nc3ccc(S(N)(=O)=O)cc3)cc2)nc1N1CCOCC1` [MTR-0288, 4-{3-[4-(5-Methylsulfanyl-4-morpholin-4-yl-pyrimidin-2-yl)-phenyl]-ureido}-benzenesulfonamide], the IC50 with A549 cells was found to be 3980 ± 275 nM; in the assay on PC-3 cells, 252 ± 27 nM.
Regarding `CCOC(=O)c1nc(-c2ccc(NC(=O)Nc3ccc4oc(=O)[nH]c4c3)cc2)nc(N2CCOCC2)c1OCC` [MTR-0299, 5-Ethoxy-6-morpholin-4-yl-2-{4-[3-(2-oxo-2,3-dihydro-benzooxazol-5-yl)-ureido]-phenyl}-pyrimidine-4-carboxylic acid ethyl ester], the IC50 was 2500 ± 49 nM in the assay with A549 cells and 384 ± 39 nM in the assay on PC-3 cells.
For `CSc1c(Cl)nc(-c2ccc(NC(=S)Nc3cccnc3)cc2)nc1N1CCOCC1` [MTR-0303, 1-[4-(4-Chloro-5-methylsulfanyl-6-morpholin-4-yl-pyrimidin-2-yl)-phenyl]-3-pyridin-3-yl-thiourea], the IC50 was determined as 223 ± 8 nM in the assay with A549 cells and 46 ± 1 nM in the assay on PC-3 cells.
In the case of `CSc1c(Cl)nc(-c2ccc(NC(=O)Nc3ccc(C(=O)N4CCOCC4)cc3)cc2)nc1N1CCOCC1` [MTR-0308, 1-[4-(4-Chloro-5-methylsulfanyl-6-morpholin-4-yl-pyrimidin-2-yl)-phenyl]-3-[4-(morpholine-4-carbonyl)-phenyl]-urea], the IC50 is 219 ± 11 nM with A549 cells and 62 ± 2 nM in the assay on PC-3 cells.
`CCOC(=O)c1nc(-c2ccc(NC(=O)Nc3ccc(N4CCOCC4=O)cc3)cc2F)nc(N2CCOCC2)c1OCC` [MTR-0322, 5-Ethoxy-2-(2-fluoro-4-{3-[4-(3-oxo-morpholin-4-yl)-phenyl]-ureido}-phenyl)-6-morpholin-4-yl-pyrimidine-4-carboxylic acid ethyl ester]: the IC50 is 302 ± 1 nM with A549 cells and 109 nM with PC-3 cells.
Take `CCOc1cnc(-c2ccc(NC(=O)Nc3ccc(C(N)=O)cc3)cc2)nc1N1CCOCC1` [MTR-0323, 4-{3-[4-(5-Ethoxy-4-morpholin-4-yl-pyrimidin-2-yl)-phenyl]-ureido}-benzamide]: the IC50 turned out to be 1040 ± 23 nM with A549 cells and 86 ± 3 nM with PC-3 cells.
For `CCOc1cnc(-c2ccc(NC(=O)Nc3ccc(N4CCOCC4=O)cc3)cc2)nc1N1CCOCC1` [MTR-0325, 1-[4-(5-Ethoxy-4-morpholin-4-yl-pyrimidin-2-yl)-phenyl]-3-[4-(3-oxo-morpholin-4-yl)-phenyl]-urea] the same measures were 53 ± 2 nM and 16 ± 1 nM.
The matching figures for `CCOc1cnc(-c2ccc(NC(=O)Nc3ccc(S(N)(=O)=O)cc3)cc2)nc1N1CCOCC1` [MTR-0326, 4-{3-[4-(5-Ethoxy-4-morpholin-4-yl-pyrimidin-2-yl)-phenyl]-ureido}-benzenesulfonamide]: 1030 ± 19 nM and 147 ± 10 nM.
Regarding `COc1cnc(-c2ccc(NC(=O)Nc3ccc(N4CCN(C)CC4)cc3)cc2)nc1N1CCOCC1` [MTR-0337, 1-[4-(5-Methoxy-4-morpholin-4-yl-pyrimidin-2-yl)-phenyl]-3-[4-(4-methyl-piperazin-1-yl)-phenyl]-urea], the IC50 with A549 cells was found to be 457 ± 38 nM; in the assay on PC-3 cells it was 154 ± 6 nM.
Take `CSc1c(Cl)nc(-c2ccc(NC(=O)Nc3ccc(NS(C)(=O)=O)cc3)cc2)nc1N1CCOCC1` [MTR-0347, N-(4-{3-[4-(4-Chloro-5-methylsulfanyl-6-morpholin-4-yl-pyrimidin-2-yl)-phenyl]-ureido}-phenyl)-methanesulfonamide]: the IC50 in the assay with A549 cells came to 313 ± 3 nM; with PC-3 cells it was 154 ± 8 nM.
As for `COc1cnc(-c2ccc(NC(=O)Nc3ccc(N4CCOCC4)nc3)cc2)nc1N1CCOCC1` [MTR-0353, 1-[4-(5-Methoxy-4-morpholin-4-yl-pyrimidin-2-yl)-phenyl]-3-(6-morpholin-4-yl-pyridin-3-yl)-urea], the IC50 is 557 ± 7 nM with A549 cells and 396 ± 6 nM in the assay with PC-3 cells.
As for `CSc1c(Cl)nc(-c2ccc(NC(=O)Nc3ccc(S(N)(=O)=O)cc3)cc2)nc1N1CCOCC1` [MTR-0358, 4-{3-[4-(4-Chloro-5-methylsulfanyl-6-morpholin-4-yl-pyrimidin-2-yl)-phenyl]-ureido}-benzenesulfonamide], the IC50 in the assay with A549 cells was 144 ± 1 nM; with PC-3 cells, 34 ± 1 nM.
Regarding `CCOc1c(C(=O)N2CCOCC2)nc(-c2ccc(NC(=O)Nc3ccc(C(N)=O)cc3)cc2)nc1N1CCOCC1` [MTR-0364, 4-(3-{4-[5-Ethoxy-4-(morpholine-4-carbonyl)-6-morpholin-4-yl-pyrimidin-2-yl]-phenyl}-ureido)-benzamide], the half-maximal inhibitory concentration (IC50) in the assay on A549 cells came to 462 ± 8 nM; in the assay on PC-3 cells, 142 ± 14 nM.
For the molecule `CCOC(=O)c1nc(-c2ccc(NC(=O)Nc3ccc(S(C)(=O)=O)cc3)cc2)nc(N2CCOCC2)c1OCC` [MTR-0365, 5-Ethoxy-2-{4-[3-(4-methanesulfonyl-phenyl)-ureido]-phenyl}-6-morpholin-4-yl-pyrimidine-4-carboxylic acid ethyl ester], the IC50 in the assay with A549 cells came to 74 ± 5 nM; in the assay on PC-3 cells, 23 ± 1 nM.
`CCOc1cnc(-c2ccc(NC(=O)Nc3ccc(NC(C)=O)cc3)cc2)nc1N1CCOCC1` [MTR-0368, N-(4-{3-[4-(5-Ethoxy-4-morpholin-4-yl-pyrimidin-2-yl)-phenyl]-ureido}-phenyl)-acetamide]: the IC50 in the assay on A549 cells turned out to be 214 ± 2 nM; with PC-3 cells it was 74 ± 2 nM.
Turning to `CCOC(=O)c1nc(-c2ccc(NC(=O)Nc3ccc(NS(C)(=O)=O)cc3)cc2)nc(N2CCOCC2)c1OCC` [MTR-0369, 5-Ethoxy-2-{4-[3-(4-methanesulfonylamino-phenyl)-ureido]-phenyl}-6-morpholin-4-yl-pyrimidine-4-carboxylic acid ethyl ester], the results for the IC50 with A549 cells and with PC-3 cells were 280 ± 6 nM and 44 ± 4 nM, respectively.
With `CCOC(=O)c1nc(-c2ccc(NC(=O)Nc3ccc(NC(C)=O)cc3)cc2)nc(N2CCOCC2)c1OCC` [MTR-0370, 2-{4-[3-(4-Acetylamino-phenyl)-ureido]-phenyl}-5-ethoxy-6-morpholin-4-yl-pyrimidine-4-carboxylic acid ethyl ester], the IC50 is 287 ± 5 nM in the assay on A549 cells and 92 ± 4 nM with PC-3 cells.
Consider `CSc1cnc(-c2ccc(NC(=O)Nc3ccc(NS(C)(=O)=O)cc3)cc2)nc1N1CCOCC1` [MTR-0376, N-(4-{3-[4-(5-Methylsulfanyl-4-morpholin-4-yl-pyrimidin-2-yl)-phenyl]-ureido}-phenyl)-methanesulfonamide], for which the IC50 in the assay with A549 cells was found to be 595 ± 33 nM; in the assay with PC-3 cells it was 142 ± 10 nM.
Regarding `CSc1cnc(-c2ccc(NC(=O)Nc3ccc(N4CCOCC4=O)cc3)cc2F)nc1N1CCOCC1` [MTR-0378, 1-[3-Fluoro-4-(5-methylsulfanyl-4-morpholin-4-yl-pyrimidin-2-yl)-phenyl]-3-[4-(3-oxo-morpholin-4-yl)-phenyl]-urea], the results for the IC50 in the assay on A549 cells and with PC-3 cells were 186 ± 3 nM and 113 ± 11 nM, respectively.
The matching figures for `COc1cnc(-c2ccc(NC(=O)Nc3ccc(C(=O)N4CCOCC4)cc3)cc2)nc1N1CCOCC1` [MTR-0382, 1-[4-(5-Methoxy-4-morpholin-4-yl-pyrimidin-2-yl)-phenyl]-3-[4-(morpholine-4-carbonyl)-phenyl]urea]: 74 ± 5 nM and 19 ± 1 nM.
`COc1cnc(-c2ccc(NC(=O)Nc3ccc(C(N)=O)cc3)c(F)c2)nc1N1CCOCC1` [MTR-0385, 4-{3-[2-Fluoro-4-(5-methoxy-4-morpholin-4-yl-pyrimidin-2-yl)-phenyl]-ureido}-benzamide]: the IC50 in the assay on A549 cells is 361 ± 13 nM; in the assay with PC-3 cells, 396 ± 6 nM.
For `CSc1c(Cl)nc(-c2ccc(NC(=O)Nc3ccc(S(C)(=O)=O)cc3)cc2)nc1N1CCOCC1` [MTR-0387, 1-[4-(4-Chloro-5-methylsulfanyl-6-morpholin-4-yl-pyrimidin-2-yl)-phenyl]-3-(4-methanesulfonyl-phenyl)-urea], the IC50 was found to be 148 ± 10 nM in the assay on A549 cells and 88 ± 3 nM in the assay on PC-3 cells.
